# PubChem BioAssay AID492997 (Johns Hopkins Ion Channel Center, 2010)
# This is a selection; strong and weak results do not stand in their true shares. Active and inactive are the calls of the source.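 The calls were made as follows: active = thallium signal drop beyond 5 SD of the untreated control mean, on both duplicate plates; inactive = the rest.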
# Experiment: nonspecific activity without KCNK9 expression – cell-based, second counter screen, non-induced KCNK9-HEK293, counter-screen for KCNK9 inhibitor project, confirmation (AID 492997);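 also: plate controls were buffer only IC0 wells for no effect and SID17386958 at its maximal inhibitory level for full effect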
# Details: non-induced KCNK9-HEK293, FluxOR thallium flux; at 10 µM; hits give high values
row,SMILES,inhibition
1,O=P(Nc1nccs1)(c1ccccc1)c1nc2ccccc2s1 (stereo unspecified),active: 25%
